Values of other authors as cited in US4598087A, “Substituted trans-1,2-diaminocyclohexyl amide compounds” (dated 1986).

Tested on: kappa
Conditions: P. V. Vanvoigtlander, et al.

**Q.** With `CN(C(=O)Cc1ccc(Cl)c(Cl)c1)[C@@H]1CCCC[C@H]1N1CCCC1` (relative stereo) as the molecule, how does the “selective kappa agonist activity” value read?
**A.** The value was “selective kappa agonist activity”.
